Nrf2 ARE act: activates Nrf2 signaling; AREc32 ARE-luciferase reporter (MCF7-derived line), luminescence, 24 h; Potency, µM (series often up to 46.1 µM), hits mostly activators; hit rate 0.31% among 410,000; AID 624171; also: nearly all actives have a fitted effect of over 65% in size
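For detection, Steady-Glo was added and plates sat 30 min at RT; before that, AREc32_Fluc cells grown overnight in OPTI-MEM/5% FBS had been treated with 23 nL compound for 24 hr at 37 deg C.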
A549 tox: A549 cytotoxicity, counter-screen for Nrf2 inhibitors | A549 ARE-Fluc cells, CellTiter-Fluor viability, 18-24 h | Potency, µM (series often up to 46 µM), most hits filed as inhibitors | hit rate 0.16% among 390,000 | AID 504648
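A549 ARE_Fluc cells in 5% FBS OPTI-MEM were exposed to compounds in concentration-response for 18-24 h at 37 deg C. Viability was read by CellTiter-Fluor fluorescence (Ex 405/Em 525) after 30 min, before the luciferase read.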
Nrf2 block: Nrf2 pathway inhibition; hit rate 2.1% among 360,000; AID 504444; A549 ARE-Fluc reporter, luciferase luminescence, 18-24 h; Potency, µM (top dose mostly 46 µM), hits mostly inhibitors; also: nearly all actives have a fitted effect of over 60% in size
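A549 ARE_Fluc cells (5000/well, 5% FBS OPTI-MEM) pre-incubated 2 h, then treated with compounds 18-24 h at 37C/5% CO2 in concentration-response. CellTiter-Fluor viability read first; BugLite luciferase luminescence after 15 min at room temperature gives Nrf2 activity.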
B2AR arrestin: beta2AR (human) beta-arrestin recruitment activity. P07550. beta-arrestin recruitment to beta2AR, cell-based reporter. Potency, µM (top dose mostly 46.1 µM), actives largely listed as activators. hit rate 0.02% among 330,000. AID 492947; also: nearly all actives have a fitted effect of over 65% in size
miR-21 reporter: miR-21 reporter, rising signal | HeLa miR-21 FLuc reporter, luciferase, 48 h | Potency, µM (top dose mostly 38.3 µM) | 340,000 tested, under 10 active | AID 2288; active = well fitted rising curve with a large enough effect; inconclusive = small, poorly fitted or top-dose-only effect; inactive = no such curve, though single readings can be large or run the other way;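 further: miR-21 action dims this reporter so a rising signal means less miR-21 action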
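Compounds were titrated across several concentrations (up to approximately 40 uM) and incubated 48 hours with HeLa miR-21-FLuc reporter cells (miR-21 target sequence downstream of FLuc, endogenous miR-21). Readout was firefly luciferase luminescence after lytic detection reagent.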
A number is an active result; . = inactive; ? = inconclusive; / = not tested or not shown; [ ] = another dose, or the depositor's remark. Rows were chosen to be rich in hits. Some 2.2% of all compounds tested hit in one or more screens of this group. Unless noted, calls follow the shape of the dose curve; as a rule, active = well fitted curve in the direction sought with a large enough effect; inconclusive = small, poorly fitted or top-dose-only effect, or another doubt; inactive = no such curve, though single readings can be large; an effect the other way counts as inactive or inconclusive.

SMILES	Nrf2 ARE act	A549 tox	Nrf2 block	B2AR arrestin	miR-21 reporter
Cc1ccsc1CNc1ncnc2ccc(-c3ccc4c(c3)OCO4)cc12	/	.	?	/	/
CCCCOc1ccc(C2c3c(-c4ccccc4O)n[nH]c3C(=O)N2Cc2ccncc2)cc1OC (stereo unspecified)	.	.	.	/	?
CCOc1ccccc1-c1nc(-c2ccc(NC(=O)Cc3ccc(OC)cc3)cc2)no1	.	.	20.6µM	.	.
O=C(Nc1ccc2nc(SCC(=O)N3CCCc4ccccc43)sc2c1)c1ccccc1	.	.	11.6µM	/	.
COc1ccc(-c2nc(N)n(C(=O)c3ccc(C)cc3)n2)cc1	.	.	10.3µM	.	.
Cc1ccc(C(=O)n2nc(-c3ccco3)nc2NCc2cccs2)cc1	.	.	8.2µM	/	.
Nc1nc(-c2ccco2)nn1C(=O)c1ccc(F)cc1	.	.	18.4µM	.	.
CCCN1CCN(CCCNC(=O)c2ccc3c(c2)sc2nc(-c4ccc(OC)cc4)cn23)CC1	.	.	?	/	.
Cc1ccc(Sc2cnn(-c3ccccc3)c(=O)c2Cl)cc1	5.01µM	.	.	.	.
CNc1cnn(-c2ccccc2)c(=O)c1Cl	.	.	.	.	.
Nc1ccc(Sc2cnn(-c3ccccc3)c(=O)c2Cl)cc1	15.8µM	.	.	.	.
CC(=O)N1N=C(c2cccc(NS(=O)(=O)c3ccc(C)cc3)c2)CC1c1ccco1 (stereo unspecified)	.	?	23.1µM	.	.
O=S(=O)(/C=C/C=C/S(=O)(=O)c1ccccc1)c1ccccc1	.	?	25.9µM	/	/
NS(=O)(=O)c1ccccc1	.	.	.	.	.
Cc1cc(S(=O)(=O)c2ccc([N+](=O)[O-])cn2)ccc1Br	12.6µM	.	?	/	/
CC(C)c1ccc(Nc2nc(Nc3ccc(Cl)cc3)nc(N3CCOCC3)n2)cc1	/	.	.	/	/
c1ccc(-c2noc(-c3cccnc3)n2)cc1	3.16µM	.	?	/	.
c1ccc(-c2ccc(-c3nc(-c4cccnc4)no3)cc2)cc1	.	.	?	.	.
Clc1ccccc1-c1nc(-c2ccncc2)no1	11.2µM	.	?	.	.
c1ccc(C(Cc2nc(-c3ccncc3)no2)c2ccccc2)cc1	.	.	8.2µM	.	.
Clc1ccccc1-c1nc(-c2cccnc2)no1	?	.	?	/	.
Cc1ccccc1-c1nc(-c2cccnc2)no1	12.6µM	.	?	.	.
CC(=O)c1c(C)nc2nc(-c3ccccc3)nn2c1C	.	.	?	/	.
c1ccc(-c2nc(-c3ccncc3)no2)cc1	11.2µM	.	?	/	.
CCOC(=O)c1cc(C(=O)NCc2ccc(Cl)cc2Cl)nn1C	.	.	20.6µM	.	.
SMILES	Nrf2 ARE act	A549 tox	Nrf2 block	B2AR arrestin	miR-21 reporter
O=C(Oc1c(CN2CCOCC2)cc(Cl)c2cccnc12)c1ccccc1Cl	?	.	.	3.55µM	?
O=C(Oc1c(CN2CCOCC2)cc(Cl)c2cccnc12)c1ccc(F)cc1	.	/	23.1µM	.	?
O=C(Oc1c(CN2CCOCC2)cc(Cl)c2cccnc12)c1cccs1	?	.	?	.	?
O=C(Oc1c(Cl)cc(Cl)c2cccnc12)c1ccco1	.	?	23.1µM	?	.
COc1cc(C(=O)Oc2c(CN3CCOCC3)cc(Cl)c3cccnc23)cc(OC)c1OC	?	.	.	3.55µM	?
CC(=O)Nc1nonc1-c1nnc(SCc2cccc(Br)c2)n1C	.	.	.	/	.
Cc1ccc2occ(CC(=O)Nc3ccc(Cl)c(C(F)(F)F)c3)c2c1	.	.	?	/	?
CCOn1c(=O)c(=O)n(OCc2ccccc2)c2ccccc21	22.4µM	.	/	.	.
COc1ccc(CN(Cc2ccccc2)C(=O)c2ccccc2O)cc1COc1ccc(NC(C)=O)cc1	/	.	.	/	/
CN(Cc1ccccc1)C(=O)CSc1nnc(-c2cccc(Cl)c2)o1	.	.	.	/	.
COc1ccc(-c2nnc(SCC(=O)N(C)Cc3ccccc3)o2)cc1OC	.	.	23.1µM	/	?
CC(C)(C)Nc1nc(C#N)nc(Nc2ccccc2)n1	/	.	.	/	/
Cc1ccc(S(=O)(=O)C2CCN(c3nc(-c4cccs4)nc4ccccc34)CC2)cc1	/	.	.	/	/
Cc1ccc(-c2nnc(Nc3cccc(O)c3)c3ccccc23)cc1S(=O)(=O)N1CCOCC1	.	?	16.4µM	/	.
COc1ccc(-c2nc(CN3CCN(c4cc(C)nc(C)c4)CC3)c(C)o2)c2ccccc12	.	.	.	.	.
Cc1oc(-c2cccc3ccccc23)nc1CN1CCN(c2ncnc3ccccc23)CC1	.	?	18.4µM	.	.
Fc1cccc(CNc2ncnc3ccc(-c4ccccc4Cl)cc23)c1	/	/	/	.	/
COc1ccc(C(=O)C[n+]2cc(-c3ccc(OC)cc3)n3c2CCCC3)cc1	.	.	8.2µM	.	.
N#Cc1nc(N)nc(N2CCCCC2)n1	/	.	18.4µM	/	/
Clc1cccc(Cl)c1C[n+]1ccc2ccccc2c1	.	.	6.51µM	.	.
Cc1cccc(-n2ncc(C(=O)NCc3ccco3)c2C2CCN(C(=O)OC(C)(C)C)CC2)c1	.	.	.	/	.
Fc1ccc2c(c1)/C(=N/Nc1ccccn1)CCS2	11.2µM	.	.	.	.
COc1ccc(Cl)cc1NC(=O)Cn1ncc2c3ccccc3n(Cc3ccccc3)c2c1=O	.	.	.	/	.
CCCc1cc(SCC(=O)Nc2c(C)n(C)n(-c3ccccc3)c2=O)n2c(nc3ccccc32)c1C#N	.	.	.	3.55µM	.
CC(=O)/C=C\c1ccccc1OC(=O)c1cc2ccccc2oc1=O	.	.	.	.	.
SMILES	Nrf2 ARE act	A549 tox	Nrf2 block	B2AR arrestin	miR-21 reporter
O=C(/C=C\c1ccccc1OC(=O)c1ccccc1F)c1cc2ccccc2o1	11.2µM	?	?	.	.
Cc1cc(F)ccc1NC(=O)Cn1nc(N2CCN(c3ccccc3)CC2)ccc1=O	.	.	.	/	.
Cc1cccc(NC(=O)c2ccc(Cn3nc(N4CCN(c5ccccc5)CC4)ccc3=O)o2)c1C	.	?	20.6µM	/	.
Cc1ccc(NS(=O)(=O)c2cc3c(cc2Cl)CCC(=O)N3)cc1Cl	/	.	.	/	/
Cc1ccc([N+](=O)[O-])cc1N=Nc1c(-c2ccc([N+](=O)[O-])cc2)[nH]n(C(N)=S)c1=O	.	?	?	0.708µM	?
NC(=S)n1[nH]c(-c2ccc([N+](=O)[O-])cc2)c(N=Nc2ccc(Cl)cc2)c1=O	.[9.22 µM]	?	5.17µM	15.8µM	.
Cc1ccc([N+](=O)[O-])cc1N=Nc1c(C)[nH]n(C(N)=S)c1=O	.	.	.	.	.
Cc1ccc(-n2c(=O)c3oc4ccccc4c3n(Cc3ccccc3)c2=O)cc1C	.	.	?	/	.
Cn1c(=O)n(C)c2cc([N+](=O)[O-])c(N3CCN(C(=O)c4ccccc4Br)CC3)cc21	.	?	18.4µM	.	.
Cn1c(=O)n(C)c2cc([N+](=O)[O-])c(N3CCN(C(=O)c4ccccc4Cl)CC3)cc21	.	.	?	.	.
O=C1Nc2ccccc2Nc2ccc([N+](=O)[O-])cc21	.	.	10.3µM	.	.
